The numbers were not newly measured in patent US9551722B2, “Amyloid binding agents” (The Regents of the University of California, priority 2009, dated 2017), which cites them from elsewhere.

By UniProt entry, the sequences of proteins in these tests, tags left out. Residues count along the entry.
UniProt P05067, 672-713 limits assumed: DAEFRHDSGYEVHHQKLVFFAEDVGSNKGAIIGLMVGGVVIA

SMILES strings stand for the structures.

The target of this data set is T1, pre-aggregated Aβ(1-42) peptide (Homo sapiens, UniProt P05067).
T1 construct: preaggregated Aβ(1-42) peptides
The following applies: literature value; read-out: Reported Kd; cited from earlier work.

For orientation: Kd means a measure of binding affinity in units of concentration. On to `Cc1ccc2c(c1)sc(-c1ccc(N(C)C)cc1)[n+]2C` [ThT, Thioflavin T], for which the Kd was 2000 nM.
